Experimental data from PubChem BioAssay AID652105 (National Center for Advancing Translational Sciences (NCATS), 2013).
Only a part is listed here, and it is no random draw. Activity calls are given as the source filed them. Rule for the calls: active = max response of -50% or lower; inconclusive = between -30% and -50%; inactive = -30% or higher.

By UniProt entry, the sequences of proteins in these tests, tags left out.
UniProt P48426, whole entry: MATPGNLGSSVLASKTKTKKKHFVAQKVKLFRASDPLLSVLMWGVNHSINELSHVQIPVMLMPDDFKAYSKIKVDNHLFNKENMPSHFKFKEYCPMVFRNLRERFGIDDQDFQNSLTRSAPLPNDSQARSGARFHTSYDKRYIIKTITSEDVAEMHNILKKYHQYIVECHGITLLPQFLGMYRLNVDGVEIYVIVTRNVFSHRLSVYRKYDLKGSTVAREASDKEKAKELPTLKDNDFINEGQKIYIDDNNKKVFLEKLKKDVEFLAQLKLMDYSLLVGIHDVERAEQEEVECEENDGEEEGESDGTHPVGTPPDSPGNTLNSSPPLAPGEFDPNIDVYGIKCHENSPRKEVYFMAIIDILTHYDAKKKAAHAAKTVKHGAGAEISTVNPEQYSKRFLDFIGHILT

These molecules were tested against Phosphatidylinositol 5-phosphate 4-kinase type-2 alpha (Homo sapiens) (UniProt P48426) (assay: qHTS for Inhibitors of phosphatidylinositol 5-phosphate 4-kinase (PI5P4K)). Details: PI5P4Kalpha enzyme, ADP-Glo luminescence, 60 min; active compounds read low.
Description: In addition to finding PI5P, we discovered the type II phosphatidylinositol 5-phosphate 4-kinase (PI5P4K) family (alpha, beta, gamma isoforms) that catalyze the conversion of PI5P to PI(4,5)P2. Alternatively, PI(4,5)P2 can also be synthesized through phosphatidylinositol-4-phosphate (PI4P) by the type I phosphatidylinositol 4-phosphate 5-kinases (PI4P5K). These PI5P4K enzymes therefore represent one way by which cells can regulate endogenous PI5P levels and play important roles in insulin signaling and in stress responses.
This proposal aims to identify and optimize specific modulators of human PI5P4K, phosphatidylinositol-5-phosphate 4-kinase (Type II PIPK), a family of kinases that regulate AKT signaling and tumor cell growth. In this project we aim to identify inhibitors of human PI5P4K using a quantitative high-throughput screening approach against the MLSMR containing ~400,000 small molecules.
NIH Chemical Genomics Center [NCGC] […]
2 microL of PI5P4Kalpha/substrate buffer (columns 1-2, 5-48) are dispensed into Greiner white solid bottom 1536-well assay plates; column 3 receives only PI5P4Kalpha buffer as 0x substrate controls; column 4 receives only substrate buffer as 0x PI5P4Kalpha controls. […] They are then transferred to a ViewLux high-throughput CCD imager (PerkinElmer) wherein single end-point measurements of luminescence are acquired using a clear filter.
% is set by controls: 0 for no effect and ±100 for the full control effect.
Note: value at the top dose of about 77 µM.

SMILES | max response
CN(C)CCOC(=O)C(O)(c1ccccc1)C1CCCCC1 (stereo unspecified) | inactive: -1.21%
